Bioassay records deposited in PubChem by ICCB-Longwood Screening Facility, Harvard Medical School.
The list is not random: actives were taken first. Their share in the collection is about 0.43%.
GIV Gai3 FP – blocks GIV peptide binding to rat Galpha-i3. P08753. Galpha-i3/FITC-GIV peptide fluorescence polarization, 90 min; stronger effect = lower value; scaled: aluminum fluoride 0%, vehicle 100%. percent of control (FP), % (test concentration not listed). 0.42% of 210,000 active. AID 1224905;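 active = replicate mean at 85% of control or lower, very high polarization wells dropped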;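 note: wells of about 15 µL received 100 nL stock; the first replicate is given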
HCMV UL50-53 inh – disrupts HCMV UL50-UL53 complex binding. HTRF UL50-UL53 interaction, normalized percent inhibition. inhibition, % (test concentration not listed). 190,000 tested, 0.15% active. AID 1918969; in the data active means inhibition above about 27%, passing the limit was not always enough
* marks the source's active call; other numbers are inactive results; x = no result; ! = a repeat was not active.

The line under a structure holds: GIV Gai3 FP	HCMV UL50-53 inh
#1 CC(CC1C(C#N)=C(N)SC(N)=C1C#N)c1ccccc1 (stereo not drawn)
→ -73.7*	-7.7
#2 O=C(NCC1CCC(C(=O)Nc2ccc3c(c2)OCO3)CC1)c1ccc(=O)[nH]c1 (stereo not drawn)
→ 102.0	x
#3 O=c1cc(N2CCN(S(=O)(=O)c3ccc(F)c(F)c3)CC2)nc2sc(-c3ccccc3)nn12
→ 101.9	59.7*
#4 Cc1ccc(S(=O)(=O)N2CCN(c3cc(=O)n4nc(-c5ccccc5)sc4n3)CC2)cc1
→ 103.7	33.9
#5 CCOc1cc(C=C2C(=O)N(C)C(=O)N(C)C2=O)ccc1OCCOCCOc1ccc(C)cc1
→ 105.0	10.4
#6 CCOc1cc(C=C2C(=O)N(C)C(=O)N(C)C2=O)ccc1OCCOc1ccc([N+](=O)[O-])cc1
→ 103.1	55.0*
#7 CCc1cc2c(cc3c(=O)n(CC(=O)NCCN4CCOCC4)ncn32)s1
→ 104.6	-40.1
#8 Cc1nn(-c2ccccc2)c(C)c1CN=Cc1c(O)[nH]c(=O)[nH]c1=O
→ x	29.5
#9 CCN(CC)c1ccc2cc(C(=O)Nc3cccc(C(F)(F)F)c3)c(=O)oc2c1
→ 101.7	-4.8
#10 CCN(CC)c1ccc2cc(C(=O)NC3CCCCC3)c(=O)oc2c1
→ x	-24.3
#11 CCN(CC)c1ccc2cc(C(=O)Nc3ccc(NC(C)=O)cc3)c(=O)oc2c1
→ 82.6*	-16.0
#12 CCN(CC)c1ccc2cc(NC(=O)CCC(=O)O)c(=O)oc2c1
→ 83.7*	-38.2
#13 Cc1cccn2c(=O)c(C(=O)NC3CCCCC3)cnc12
→ 102.2	x
#14 CCOC(=O)N1CCC(NC(=O)CSc2nc3ccccc3n2S(=O)(=O)c2ccc(C)cc2)CC1
→ 105.2	x
#15 O=C(Nc1ccc2nc3c(=O)[nH]c(=O)[nH]c3nc2c1)C(F)(F)F
→ -15.9*	x
#16 Cc1ccc2nc3[nH]c(=O)[nH]c(=O)c3nc2c1
→ 102.6	x
#17 CCN(CC)c1ccc(/C=C(/C#N)C(=O)NC(C)C)o1
→ -102.1*	-161.5
#18 CCN(CCC#N)c1ccc(/C=C(\C#N)C(=O)NC(C)C)c(C)c1
→ x	-76.7
#19 Cc1ccc(C(=O)NC2(O)C(=O)c3ccccc3C2=O)cn1
→ 94.5	54.4*
#20 Cc1ccc(C(=O)N/N=C/c2c[nH]c3ccccc23)cn1
→ 103.8	-56.1
#21 O=C(Nc1ccc(C(=O)N2CCCC2)cc1)c1nsc2ccccc12
→ 103.9	x
#22 O=C(c1ccccc1)c1nc2ccccc2oc1=O
→ x	-12.2
#23 O=c1oc2ccccc2nc1/C=C(\O)c1cccs1
→ -68.8*	-23.7
#24 CCN1CCCC1CNC(=O)CCCc1cn(CC)c2ccccc12 (stereo not drawn)
→ 102.2	x
#25 NNc1nc(-c2ccccc2)cc(-c2ccccc2O)n1
→ 102.8	x
#26 COc1ccc(-c2cc(-c3ccccc3O)nc(NC(N)=S)n2)cc1
→ x	51.0*
#27 O=C(CN1C(=O)C2(OCCO2)c2cc(Br)ccc21)c1ccc(Br)cc1
→ 100.3	5.4
#28 O=S(=O)(c1ccc2nsnc2c1)N1CCCCC1c1cccnc1 (stereo not drawn)
→ 102.4	-57.5
#29 O=S(=O)(c1ccc2c(c1)OCCO2)N1CCCCC1c1cccnc1 (stereo not drawn)
→ -70.7*	-17.4
#30 Fc1ccc(C2C=C(c3ccc4c(c3)OCO4)Nc3ncnn32)cc1 (stereo not drawn)
→ 99.8	x
#31 O=C(NCCc1ccncc1)NC1CCCCC1
→ x	-0.6
#32 CCCc1[nH]n(-c2ccccc2)c(=O)c1C(C)=NCCOC
→ 106.9	2.0
#33 CC(=O)NCCCc1[nH]n(-c2ccccc2)c(=O)c1NC(=O)c1ccccc1
→ x	65.0*
#34 CCN(CC)c1ccc(/C=C2\SC(=S)N(c3c(C)n(C)n(-c4ccccc4)c3=O)C2=O)cc1
→ 26.5*	x
#35 CCN(CC)c1ccc(N2C(=O)/C(=C/c3ccccc3)SC2=S)cc1
→ x	-8.3
#36 CCCc1cc(=O)[nH]c(Nc2ccccc2)n1
→ 107.4	76.7*
#37 CCc1cc(=O)[nH]c(Nc2ccccc2)n1
→ 110.4	-7.4
#38 CCc1ccc(N2C(=O)NC(=O)/C(=C\c3ccc(OC(C)C(=O)O)cc3)C2=O)cc1 (stereo not drawn)
→ 99.8	78.5*
#39 CCOc1ccc(N2C(=O)NC(=O)/C(=C\c3ccc(Br)cc3)C2=O)cc1
→ 109.7	1.2
#40 CC(Oc1ccc(/C=C2\C(=O)NC(=O)N(c3ccc4c(c3)OCO4)C2=O)cc1)C(=O)O (stereo not drawn)
→ 104.3	-0.9
#41 Cc1cc(C)cc(N2C(=O)NC(=O)/C(=C\c3ccc(OC(C)C(=O)O)cc3)C2=O)c1 (stereo not drawn)
→ 113.3	88.3*
#42 OC(CNCCNc1nccc(C(F)(F)F)n1)c1ccccc1 (stereo not drawn)
→ 109.7	-0.2
#43 O=c1ccc(-c2ccc(S(=O)(=O)N3CCCc4ccccc43)s2)n[nH]1
→ 99.6	-9.5
#44 c1cc2c(cc1CN1CCSCC1)OCO2
→ 94.0	-12.8
#45 O=C(O)CSCc1nc2ccccc2[nH]c1=O
→ 145.4	52.5*
#46 COC(=O)CSCc1nc2ccccc2[nH]c1=O
→ 211.8	56.8*
#47 COC(=O)CSc1nc2ccccc2[nH]1
→ 99.8	-43.4
#48 O=C(O)CSCc1nc2ccccc2[nH]1
→ x	-3.7
#49 CCn1cc2nc(SCC(=O)NC3CCCCC3)n(Cc3ccc(OC)cc3)c(=O)c2n1
→ 103.4	-34.1
#50 CCCCCCc1cc2cc(-c3csc(Nc4ccc(Cl)cc4Cl)n3)c(=O)oc2cc1O
→ 195.9	-23.0
#51 CCCCCCc1cc2cc(-c3nnc(-c4ccc(C)cc4)o3)c(=O)oc2cc1O
→ 7.6*	2.8
#52 CCC(=O)N(c1ccc(OC)cc1OC)C1C=CS(=O)(=O)C1 (stereo not drawn)
→ 103.4	x
#53 Cc1oc(-c2ccccc2)nc1CN1CCN(C(=O)Nc2ccccc2)CC1
→ 110.1	6.6
#54 CC[n+]1c(/C=C/C=C2/N(C)c3ccccc3C2(C)C)sc2ccccc21
→ -20.0*	-9.9
#55 CN1/C(=C\C=C(C#N)C#N)C(C)(C)c2ccccc21
→ x	14.3
#56 CCOC(=O)c1csc(-c2ccc3nonc3c2)n1
→ 102.6	-15.3
#57 CCC(=O)N1CCc2cc(N3CC(C(=O)Nc4ccc5c(c4)OCCO5)CC3=O)ccc21 (stereo not drawn)
→ 105.3	x
#58 CCOC(=O)/C(C#N)=C\c1ccc(N2CCOCC2)cc1
→ -45.2*	-49.5
#59 CCOC(=O)/C(C#N)=C/c1ccccc1
→ 103.2	-75.9
#60 COc1ccc(N2CCN(C(=O)c3cc4sccc4n3Cc3ccccc3)CC2)cc1
→ 99.1	9.4

Looked up by structure from the entries so far (two):
The line under a structure holds: GIV Gai3 FP	HCMV UL50-53 inh
#39 CCOc1ccc(N2C(=O)NC(=O)/C(=C\c3ccc(Br)cc3)C2=O)cc1
→ 109.7	1.2
#35 CCN(CC)c1ccc(N2C(=O)/C(=C/c3ccccc3)SC2=S)cc1
→ x	-8.3

Additional compounds:
The line under a structure holds: GIV Gai3 FP	HCMV UL50-53 inh
#61 OCCCCCNc1nccc(-c2cnn(-c3ccc(F)cc3)c2)n1
→ x	-16.1
#62 COc1ccc(Nc2nn3c(=O)c4ccccc4nc3s2)cc1
→ x	-9.1
#63 CC(C)c1ccc(Nc2nn3c(=O)c4ccccc4nc3s2)cc1
→ 97.6	37.5*
#64 CC(=O)NC1C(OC2=CC3OC(=O)CC(C)=C3C=C2)OC(CO)C(O)C1O (stereo not drawn)
→ 101.8	-26.8
#65 O=C(O)CSCC(=O)Nc1nc(SCc2ccc(Cl)cc2)n[nH]1
→ 99.9	-7.6
#66 Cc1ccc(S(=O)(=O)Nc2nc3n(n2)C(c2ccc(Cl)cc2)C=C(c2ccccc2)N3)cc1 (stereo not drawn)
→ -66.1*!	-53.6
#67 Cc1ccc(S(=O)(=O)Nc2nc3n(n2)C(c2ccc(Cl)cc2)C=C(c2ccc(Cl)cc2)N3)cc1 (stereo not drawn)
→ 113.2	-20.0
#68 Cc1ccc(C2C=C(c3ccc(Cl)cc3)Nc3nc(NC(=O)c4ccco4)nn32)cc1 (stereo not drawn)
→ 32.6*	-51.6
#69 COc1ccccc1C(=O)Nc1nc2n(n1)C(c1ccc(F)cc1)C=C(c1ccc(Cl)cc1)N2 (stereo not drawn)
→ 124.8	-34.9
#70 COc1ccc(C(=O)Nc2nc3n(n2)C(c2ccc(F)cc2)C=C(c2ccc(Cl)cc2)N3)cc1 (stereo not drawn)
→ -66.1*	-16.7

Whole records as entered above.
Cc1ccc(S(=O)(=O)Nc2nc3n(n2)C(c2ccc(Cl)cc2)C=C(c2ccc(Cl)cc2)N3)cc1 (stereo not drawn) is entered as GIV Gai3 FP: 113.2; HCMV UL50-53 inh: -20.0
Cc1ccc(S(=O)(=O)Nc2nc3n(n2)C(c2ccc(Cl)cc2)C=C(c2ccccc2)N3)cc1 (stereo not drawn) is entered as GIV Gai3 FP: -66.1*!; HCMV UL50-53 inh: -53.6
COc1ccc(Nc2nn3c(=O)c4ccccc4nc3s2)cc1 is entered as GIV Gai3 FP: x; HCMV UL50-53 inh: -9.1
